The chains behind the UniProt entries cited, without tags or fusion partners.
UniProt P11229, whole entry: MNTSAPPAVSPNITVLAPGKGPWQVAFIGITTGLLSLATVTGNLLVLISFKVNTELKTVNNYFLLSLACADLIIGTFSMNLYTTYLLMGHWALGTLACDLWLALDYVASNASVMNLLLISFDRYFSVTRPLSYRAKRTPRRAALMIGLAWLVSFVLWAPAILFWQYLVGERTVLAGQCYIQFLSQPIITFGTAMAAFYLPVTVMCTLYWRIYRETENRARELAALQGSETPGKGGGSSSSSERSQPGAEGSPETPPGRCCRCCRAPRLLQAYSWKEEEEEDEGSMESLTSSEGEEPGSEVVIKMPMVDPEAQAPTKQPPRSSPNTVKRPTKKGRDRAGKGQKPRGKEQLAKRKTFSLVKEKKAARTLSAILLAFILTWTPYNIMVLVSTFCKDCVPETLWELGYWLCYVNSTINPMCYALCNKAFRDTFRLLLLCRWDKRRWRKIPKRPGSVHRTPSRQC

According to PMC5963591, “Bitopic Binding Mode of an M1 Muscarinic Acetylcholine Receptor Agonist Associated with Adverse Clinical Trial Outcomes” (Molecular Pharmacology, 2018):

Biological target: human M1 mAChR (Homo sapiens, UniProt P11229)
Details: saturation binding, membranes expressing human M1 mAChR; tested as the radiolabelled form

In the case of `Cc1cc(F)c2[nH]c(=O)n(C3CCN(C4CCOCC4)CC3)c2c1` [GSK1034702, 7-fluoro-5-methyl-3-[1-(oxan-4-yl)piperidin-4-yl]-1H-benzimidazol-2-one], the Kd is reported as 550 nM.
